Measurements taken from patent US20240051950A1.

Amino acid sequences for entries named in this document (tags omitted).
UniProt P08684, whole entry: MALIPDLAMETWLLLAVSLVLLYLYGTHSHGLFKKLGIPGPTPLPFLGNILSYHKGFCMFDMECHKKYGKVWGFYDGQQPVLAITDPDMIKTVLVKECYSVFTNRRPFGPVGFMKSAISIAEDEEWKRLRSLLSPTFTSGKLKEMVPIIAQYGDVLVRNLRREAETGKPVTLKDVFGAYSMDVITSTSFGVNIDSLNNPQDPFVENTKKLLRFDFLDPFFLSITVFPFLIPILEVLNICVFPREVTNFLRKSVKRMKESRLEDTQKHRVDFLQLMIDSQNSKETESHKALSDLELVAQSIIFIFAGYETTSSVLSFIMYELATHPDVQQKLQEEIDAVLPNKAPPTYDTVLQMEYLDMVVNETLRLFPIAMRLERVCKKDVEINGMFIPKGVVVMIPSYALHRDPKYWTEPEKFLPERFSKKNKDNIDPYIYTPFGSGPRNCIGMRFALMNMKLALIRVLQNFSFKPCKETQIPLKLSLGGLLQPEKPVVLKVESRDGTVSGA

Experiments:
[1] = biological target: T1, CYP3A4 (Homo sapiens, UniProt P08684); assay: Inhibitory potency assay, BFC O-debenzylation activity in a soluble reconstituted system with cytochrome P450 reductase; details: for IC50 for the BFC debenzylase activity of CYP3A4: 0.1 μM CYP3A4, no NADPH preincubation, Example 2; for IC50: BFC as substrate, reconstituted system with cytochrome P450 reductase, Example 1, Table 1
[2] = biological target: T1, CYP3A4; assay: Spectral binding titrations (equilibrium ligand binding, spectral Kd/Ks); details: for Kd: spectral Kd from equilibrium titration plots, Example 1, Table 1
[3] = biological target: T1, CYP3A4; assay: Thermal denaturation of ligand-bound CYP3A4; details: 1 μM protein, 20 μM ligand

Compound | Kd [2] [nM] | IC50 [1] [nM] | further results
CC(C)(C)OC(=O)N[C@@H](CS[C@@H](Cc1ccccc1)C(=O)NCCCc1cccnc1)Cc1cccc2ccccc12 |  |  | IC50 for the BFC debenzylase activity of CYP3A4 [1]: weakest inhibitor in the subseries
CC(C)(C)OC(=O)N[C@H](CS[C@H](Cc1ccccc1)C(=O)NCCCc1cccnc1)Cc1c[nH]c2ccccc12 |  |  | Fold improvement in binding affinity (Ks) ([2]; relative to the shorter pyridyl-ethyl counterparts (4e-h; 7b)): 4 fold
O=C(N[C@H](CS[C@H](Cc1ccccc1)C(=O)NCCCc1ccncc1)Cc1ccccc1)c1cc2ccccc2o1 | 7 | 170 | 
O=C(N[C@H](CS[C@H](Cc1ccccc1)C(=O)NCCCc1cccnc1)Cc1cccc2ccccc12)c1cc2ccccc2o1 | 4 | 200 | 
O=C(CNC(=O)c1ccco1)N[C@H](CS[C@H](Cc1ccccc1)C(=O)NCCCc1ccncc1)Cc1ccccc1 | 10 | 150 | 
CC(C)(C)OC(=O)N[C@H](CS[C@H](Cc1ccccc1)C(=O)NCCOCc1cccnc1)Cc1ccccc1 |  |  | ΔTm (increase in melting temperature of ligand-bound CYP3A4) [3]: < 3 °C; Spectral dissociation constant (Ks) ([2]; WT CYP3A4, 2 μM protein, 0.1 M phosphate pH 7.4, Example 2): weakest binder; IC50 for the BFC debenzylase activity of CYP3A4 [1]: least potent inhibitor
O=C(N[C@H](CS[C@H](Cc1ccccc1)C(=O)NCCCc1cccnc1)Cc1cccc2ccccc12)c1ccco1 | 3 | 150 | 
O=C(N[C@H](CS[C@H](Cc1ccccc1)C(=O)NCCCc1cccnc1)Cc1c[nH]c2ccccc12)c1cccnc1 | 16 | 220 | 
